Source: ChEMBL document CHEMBL6120956, “Discovery of a Potent, Orally Active, and Long-Lasting P2X7 Receptor Antagonist as a Preclinical Candidate for Delaying the Progression of Chronic Kidney Disease” (J Med Chem, 2024)

Legend:
[1] = molecular target: T1, P2X purinoceptor 7 (Mus musculus) (UniProt Q9Z1M0); test: Antagonist activity against mouse P2X7 receptor expressed in ATP-stimulated HEK293 cells assessed as influx of PI at 1 uM by fluorescence dye uptake assay relative to control; assay type: cell-based; design: scale not given: the % may be the effect or the level left
T1 sequence (whole entry): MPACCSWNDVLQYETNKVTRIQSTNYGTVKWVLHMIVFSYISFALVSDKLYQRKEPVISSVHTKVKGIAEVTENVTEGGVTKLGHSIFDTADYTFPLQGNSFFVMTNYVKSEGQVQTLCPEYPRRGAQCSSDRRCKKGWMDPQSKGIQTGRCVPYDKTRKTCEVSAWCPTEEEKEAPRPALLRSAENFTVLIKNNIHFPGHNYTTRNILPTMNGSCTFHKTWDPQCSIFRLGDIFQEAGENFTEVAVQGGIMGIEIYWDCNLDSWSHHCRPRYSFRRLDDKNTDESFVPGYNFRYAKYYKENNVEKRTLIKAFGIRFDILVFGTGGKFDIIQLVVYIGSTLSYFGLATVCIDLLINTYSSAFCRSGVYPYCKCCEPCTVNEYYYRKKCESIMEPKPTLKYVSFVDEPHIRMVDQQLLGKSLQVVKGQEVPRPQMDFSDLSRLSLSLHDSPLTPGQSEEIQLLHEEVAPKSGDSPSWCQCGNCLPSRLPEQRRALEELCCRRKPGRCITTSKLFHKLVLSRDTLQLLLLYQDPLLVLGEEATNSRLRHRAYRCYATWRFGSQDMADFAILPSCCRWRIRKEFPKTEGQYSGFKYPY

[2] = molecular target: T1, P2X purinoceptor 7 (Mus musculus); test: Antagonist activity against mouse P2X7 receptor expressed in ATP-stimulated HEK293 cells assessed as influx of PI at 200 nM by fluorescence dye uptake assay relative to control; assay type: cell-based; design: scale not given: the % may be the effect or the level left

Row | SMILES | Activity [1] [%] | Activity [2] [%]
1 | CS(=O)(=O)c1ccc(-c2nc(C(=O)NCc3cn(-c4cc(N5CCC(F)(F)CC5)ccn4)nn3)cs2)cc1 | 95.9 | 65.2
2 | CS(=O)(=O)c1ccc(-c2nc(C(=O)NCc3cn(-c4cc(C(F)(F)F)ccn4)nn3)cs2)cc1 | 75.6 | 50.3
3 | CS(=O)(=O)c1ccc(-c2ncc(C(=O)NCc3cn(-c4cc(C(F)(F)F)ccn4)nn3)s2)cc1 | 82 | 59.5
4 | CS(=O)(=O)c1ccc(-c2ncc(C(=O)NCc3cn(-c4cc(N5CCC(F)(F)CC5)ccn4)nn3)s2)cc1 | 84.8 | 73
5 | CS(=O)(=O)c1ccc(-c2ncc(C(=O)NCc3cn(-c4cc(NC5CC(F)(F)C5)ccn4)nn3)s2)cc1 | 75.3 | 48
6 | CS(=O)(=O)c1ccc(-c2nc(C(=O)NCc3cn(-c4cc(NC5CC(F)(F)C5)ccn4)nn3)cs2)cc1 | 73.7 | 40.3
7 | CS(=O)(=O)c1ccc(-c2nc(C(=O)NCc3cn(-c4cc(-c5cccc(C(F)(F)F)c5)ccn4)nn3)cs2)cc1 | 64 | 49.9
